{"source": "patent US10814010B2", "about": "“FOXC2 inhibitor and methods of use thereof” (The Board of Regents of The University of Texas System, priority 2018, dated 2020)", "system": "PC3 cells", "assay": "Co-treatment MTT assay, PC3", "settings": "Homo sapiens, PC-3, 24 h, read-out: EC50 of docetaxel in co-treatment with MC-1-F2"}
{"smiles": "CC(=O)O[C@@]12CO[C@@H]1C[C@H](O)[C@@]1(C)C(=O)[C@H](O)C3=C(C)[C@@H](OC(=O)[C@H](O)[C@@H](NC(=O)OC(C)(C)C)c4ccccc4)C[C@@](O)([C@@H](OC(=O)c4ccccc4)[C@H]21)C3(C)C", "note": "[docetaxel, reference compound]", "values": [{"measurement": "EC50", "result": 0.266, "unit": "nM"}]}
